Our source for the Ki values is US5281594A, “Substituted 1-(alkoxyphenyl)piperazines with ons and antihypertensive activity” (The Upjohn Company, priority 1992, dated 1994).

Amino acid sequences for entries named in this document (tags omitted).
UniProt P61169, whole entry: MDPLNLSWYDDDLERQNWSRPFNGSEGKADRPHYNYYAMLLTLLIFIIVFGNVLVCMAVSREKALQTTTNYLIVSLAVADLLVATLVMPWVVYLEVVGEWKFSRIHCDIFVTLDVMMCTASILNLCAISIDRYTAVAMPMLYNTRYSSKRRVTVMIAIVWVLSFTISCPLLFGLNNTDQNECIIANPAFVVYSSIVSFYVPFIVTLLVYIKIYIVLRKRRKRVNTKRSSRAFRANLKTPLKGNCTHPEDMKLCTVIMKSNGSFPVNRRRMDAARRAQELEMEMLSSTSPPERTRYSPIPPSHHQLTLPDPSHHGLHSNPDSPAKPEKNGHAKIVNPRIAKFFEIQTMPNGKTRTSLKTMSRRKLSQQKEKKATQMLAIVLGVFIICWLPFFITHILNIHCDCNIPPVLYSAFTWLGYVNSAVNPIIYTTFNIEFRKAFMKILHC

SMILES strings stand for the structures.

This experiment addresses D2 receptor (Rattus norvegicus, UniProt P61169). The experiment is described as follows: biochemical. The class given is binding.

Broadly, the Ki is the equilibrium dissociation constant of an inhibitor or competing ligand from its target. Low readings indicate a stronger hold on the target, high ones a looser hold on the target. Consider `CN1CCc2cccc3c2[C@H]1Cc1ccc(O)c(O)c1-3` [Apomorphine], for which the Ki amounted to 177 nM.
